PMC10787225 (Computational and Structural Biotechnology Journal, 2023)

How the values were obtained:
[1] = Atomic force microscopy (AFM) of samples at the end of ThT aggregation assays; assay type: physicochemical; details: end of ThT aggregation assay in 20 mM NaPi, pH 7.4, 50 mM NaCl; dried on mica
Procedure: For AFM imaging, 2 μl samples were taken out of the wells at the end of the ThT aggregation assays, put onto a freshly cleaved muscovite mica surface and dried during incubation for 10 min under the clean bench. Subsequently, the samples were washed with 100 μl ddH2O in three steps and dried with a stream of N2 gas. Imaging was performed in intermittent contact mode (AC mode) in a JPK NanoWizard 3 atomic force microscope using a silicon cantilever with silicon tip (OMCL-AC160TS-R3, Olympus) with a typical tip radius of 9 ± 2 nm, a force constant of 26 N/m and resonance frequency around 300 kHz. The images were processed using JPK DP Data Processing Software (version spm-5.0.84).

[2] = Thioflavin T (ThT) aggregation assay; assay type: physicochemical; details: peptide 20–550 µM, up to 85 h, 20 mM NaPi, pH 7.4, 50 mM NaCl, 37 °C, 300 rpm, glass bead, 25 µM ThT, triplicate
Procedure: All ThT aggregation assays were done in Greiner 96-well half-area, clear bottom, low-binding plates. The measurements themselves were done in a BMG CLARIOstar plate reader at 37 °C and 300 rpm shaking in orbital mode with one glass bead (0.75–1 mm, Roth) per well. Wells with samples were always surrounded by wells filled with liquid, either other samples or 150 μl water, to counter potential artefacts due to evaporation. […] Final concentrations of 25 µM ThT and 0.04% sodium azide (NaN3) were added. The plate was sealed with sealing tape and put into the plate reader, heated to 37 °C, and ThT fluorescence was read in 1000 cycles of 300 s each using bottom optics with excitation at 448 nm (10 nm bandwidth) and emission at 482 nm (10 nm bandwidth). […] Samples contained 40 µM ThT and 0.04% NaN3.
Fig. 4 Test set of eight protein segments. (A) List of the investigated peptides. Underlined stretches in the peptide sequences correspond to the predicted amyloidogenic β-hairpins. A peptide was considered ‘soluble’ when no visible precipitation occurred upon dissolution of the lyophilized peptide in 20 mM NaPi, pH 7.4, 50 mM NaCl, to a final concentration of 20 µM. […] (B) Conformations of investigated segments (red) in the context of their source proteins.

Compound: CC[C@H](C)[C@H](NC(=O)[C@H](CCSC)NC(=O)[C@@H](NC(=O)[C@H](CC(=O)O)NC(=O)[C@H](CO)NC(=O)[C@H](CCC(N)=O)NC(=O)[C@H](CCCNC(=N)N)NC(=O)[C@@H]1CCCN1C(=O)[C@H](CO)NC(=O)[C@H](C)NC(=O)[C@H](CCCNC(=N)N)NC(=O)[C@H](Cc1ccccc1)NC(=O)[C@@H](NC(=O)[C@@H](NC(=O)CNC(=O)[C@H](Cc1ccccc1)NC(=O)[C@H](CCCNC(=N)N)NC(=O)[C@@H](N)CC(=O)O)C(C)C)C(C)C)C(C)C)C(=O)N[C@H](C(=O)N[C@@H](C)C(=O)NCC(=O)N[C@H](C(=O)N[C@@H](CC(C)C)C(=O)N[C@H](C(=O)N[C@@H](CC(N)=O)C(=O)N[C@@H](CCCCN)C(=O)O)[C@@H](C)O)[C@@H](C)O)C(C)C [NDUFS7(104−129)]
- AFM aggregate morphology [1]: fibrillar aggregates confirming amyloid formation were detected
- ThT [2]: +
